Values quoted from earlier work as cited in patent US20200101067A1 (IRR, Inc., priority 2013, published 2020).

System: histamine induced wheal and flare
Settings: levocetirizine 5 mg per day vs fexofenadine 180 mg per day

## O=C(O)COCCN1CCN([C@H](c2ccccc2)c2ccc(Cl)cc2)CC1 [Levocetirizine, levocetirizine]
  Potency/effectiveness in histamine induced wheal and flare: most potent of the five modern generation antihistamines
Listed as levocetirizine
  Potency/effectiveness in histamine induced wheal and flare: more effective than fexofenadine

Like-named read-outs stand apart in the source and are kept apart here.
